4 compounds from ChEMBL document CHEMBL4411302, “Aryl H-phosphonates. 19. New anti-HIV pronucleotide phosphoramidate diesters containing amino- and hydroxypyridine auxiliaries” (Eur J Med Chem, 2019) can be followed below.

Where only a bound is given, the exact number is not on record here.

The series in a line: Cytotoxicity against human CEM-T4 cells assessed as reduction in cell viability after 7 days by MTT assay. The series is classed as cell-based. The settings on record: 168 h. In general terms: Formazan colour is commonly taken as a measure of viable cells.
Regarding `Cc1cn([C@H]2C[C@H](N=[N+]=[N-])[C@@H](COP(=O)(Nc3ccccn3)Oc3cccnc3)O2)c(=O)[nH]c1=O` (some centres undefined), the half-maximal cytotoxic concentration (CC50) was found to be 79 µM.
The same measure for `Cc1cn([C@H]2C[C@H](N=[N+]=[N-])[C@@H](COP(=O)(Nc3ccccn3)Oc3ccccc3)O2)c(=O)[nH]c1=O` (some centres undefined): above 135 µM.
The same measure for `Cc1cn([C@H]2C[C@H](N=[N+]=[N-])[C@@H](COP(=O)(Nc3ccccn3)Oc3ccncc3)O2)c(=O)[nH]c1=O` (some centres undefined): “Nd(Unstable)”; for `Cc1cn([C@H]2C[C@H](N=[N+]=[N-])[C@@H](COP(=O)(Nc3ccccn3)Oc3ccccn3)O2)c(=O)[nH]c1=O` (some centres undefined): 97 µM.

The term CC50 denotes the concentration giving 50% cytotoxicity.
